Reference: patent publication US20230234957A1, “PROTEIN TAG TO INDUCE LIGAND DEPENDENT DEGRADATION OF PROTEIN/PROTEIN-FUSIONS” (DANA-FARBER CANCER INSTITUTE, INC., priority 2020, published 2023)

Target: BRD4BD1L94V-EGFP (Homo sapiens, UniProt O60885, L94V)
Assay: Cellular degradation EGFP/mCherry reporter assay (Acumen) in Flp293T cells
Details: for DC50: read-out: DC50,6h

Row | Structure (SMILES) | DC50 | Fold selectivity BRD4 BD1/BD1 L94V
1 | COc1ccc2c(c1)C(c1ccc(Cl)cc1)=N[C@@H]([C@@H](C)C(=O)NCCCCCCCNC(=O)COc1cccc3c1C(=O)N(C1CCC(=O)NC1=O)C3=O)c1nnc(C)n1-2 (stereo partly drawn) [Compound 2, (2R)-2-((4S)-6-(4-chlorophenyl)-8-methoxy-1-methyl-4H-benzo[f][1,2,4]triazolo[4,3-a][1,4]diazepin-4-yl)-N-(7-(2-((2-(2,6-dioxopiperidin-3-yl)-1,3-dioxoisoindolin-4-yl)oxy)acetamido)heptyl)propanamide] | 6.1 ± 0.9 nM | 
2 | COc1ccc2c(c1)C(c1ccc(Cl)cc1)=N[C@@H]([C@@H](C)C(=O)NCCCCCCCCCNC(=O)COc1cccc3c1C(=O)N(C1CCC(=O)NC1=O)C3=O)c1nnc(C)n1-2 (stereo partly drawn) [Compound 3, (2R)-2-((4S)-6-(4-chlorophenyl)-8-methoxy-1-methyl-4H-benzo[f][1,2,4]triazolo[4,3-α][1,4]diazepin-4-yl)-N-(9-(2-((2-(2,6-dioxopiperidin-3-yl)-1,3-dioxoisoindolin-4-yl)oxy)acetamido)nonyl)propanamide] | 4 ± 1 nM | 
3 | COc1ccc2c(c1)C(c1ccc(Cl)cc1)=N[C@@H]([C@@H](C)C(=O)NCCOCCNC(=O)COc1cccc3c1C(=O)N(C1CCC(=O)NC1=O)C3=O)c1nnc(C)n1-2 (stereo partly drawn) [Compound 4, (2R)-2-((4S)-6-(4-chlorophenyl)-8-methoxy-1-methyl-4H-benzo[f][1,2,4]triazolo[4,3-α][1,4]diazepin-4-yl)-N-(2-(2-(2-((2-(2,6-dioxopiperidin-3-yl)-1,3-dioxoisoindolin-4-yl)oxy)acetamido)ethoxy)ethyl)propanamide] | 112 ± 20 nM | >89 fold
4 | COc1ccc2c(c1)C(c1ccc(Cl)cc1)=N[C@@H]([C@@H](C)C(=O)NCCOCCOCCNC(=O)COc1cccc3c1C(=O)N(C1CCC(=O)NC1=O)C3=O)c1nnc(C)n1-2 (stereo partly drawn) [Compound 5, (2R)-2-((4S)-6-(4-chlorophenyl)-8-methoxy-1-methyl-4H-benzo[f][1,2,4]triazolo [4,3-α][1,4]diazepin-4-yl)-N-(2-(2-(2-(2-((2-(2,6-dioxopiperidin-3-yl)-1,3-dioxoisoindolin-4-yl)oxy)acetamido)ethoxy)ethoxy)ethyl) propanamide] | 40 ± 10 nM | 
